Assay results published in patent US20150025061A1, “GABAA RECEPTOR A[…] GANGLION CELL FUNCTION AND VISUAL ACUITY” (Allergan, Inc., priority 2013, published 2015).

Conditions: intravitreal 15 uM (50 uL of 360 uM) into both eyes; N=4 eyes/time-point

With `Br.COc1ccc(-c2ccc(=N)n(CCCC(=O)O)n2)cc1` [SR95531, 6-Imino-3-(4-methoxyphenyl)-1(6H)-pyridazinebutanoic acid hydrobromide] as the compound, how does the “persistence in ocular tissues: maintained levels in the retina and choroid, time after injection” value read?
The value was “up to 1 week”.
